Protein sequences, listed by entry. Tags and fused reporters are not part of them. Residues count along the entry.
UniProt P52333, 781-1124 limits assumed: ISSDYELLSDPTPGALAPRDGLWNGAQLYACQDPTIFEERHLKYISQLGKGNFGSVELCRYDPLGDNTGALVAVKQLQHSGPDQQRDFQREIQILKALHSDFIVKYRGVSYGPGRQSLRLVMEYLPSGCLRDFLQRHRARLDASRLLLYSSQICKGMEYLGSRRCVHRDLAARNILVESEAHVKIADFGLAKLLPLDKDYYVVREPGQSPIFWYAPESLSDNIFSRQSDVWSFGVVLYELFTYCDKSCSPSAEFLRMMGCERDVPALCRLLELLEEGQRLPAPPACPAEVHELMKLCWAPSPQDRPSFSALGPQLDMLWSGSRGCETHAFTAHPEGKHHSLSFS

According to US20240150367A1, “NITROGEN-CONTAINING SPIRO CYCLIC COMPOUNDS AND PHARMACEUTICAL USE THEREOF” (Japan Tobacco Inc., priority 2009, published 2024):

Target: hJAK3 kinase domain (aa781-end) (Homo sapiens (Human), UniProt P52333)
Assay: JAK3 activity inhibition, kinase reaction (Test 1)
Conditions: for IC50: read-out: JAK3 IC50

SMILES | IC50 | inhibition at 0.1 µM (read-out: JAK3 % Inhibition)
CC1CN(C(=O)CC#N)C12CCN(c1ncnc3[nH]ccc13)C2 (stereo not drawn) [Compound 6, 3-[3-methyl-6-(7H-pyrrolo[2,3-d]pyrimidin-4-yl)-1,6-diazaspiro[3.4]oct-1-yl]-3-oxopropionitrile] | 0.0071 µM | –
CC1CN(C(=O)CC#N)C12CCN(c1ncnc3[nH]ccc13)C2 (stereo not drawn) [Compound 10] | – | 28%
CC1CN(C(=O)CC#N)C12CCN(c1ncnc3[nH]ccc13)C2 (stereo not drawn) [Compound 19] | 0.4 µM | –
